Reference: ChEMBL document CHEMBL5325467, “Discovery of novel hypoxia-activated, nitroimidazole constructed multi-target kinase inhibitors on the basis of AZD9291 for the treatment of human lung cancer” (Bioorg Med Chem, 2023)

Assay: Selectivity index, ratio of IC50 for inhibition of wild type EGFR (unknown origin) to IC50 for inhibition of EGFR L858R/T790M mutant (unknown origin)

| Ratio IC50 | SMILES |
| --- | --- |
| 38.5 | Cn1cc(-c2ccnc(Nc3cc(OCCOCCn4ccnc4[N+](=O)[O-])ccc3F)n2)c2ccccc21 |
| 8.85 | COc1ccc(Nc2nccc(-c3cn(C)c4ccccc34)n2)cc1OCCOCCn1ccnc1[N+](=O)[O-] |
